Data taken from PubChem BioAssay AID1779 (Sanford-Burnham Center for Chemical Genomics, 2009).
The list shows a part of the results, in another mix than the full data. Active and inactive are the calls of the source. Cut-off read from the data, not from the text of the source: active = inhibition above about 50%; inactive = the rest.

The chains behind the UniProt entries cited, without tags or fusion partners.
UniProt Q9Y2R2, whole entry: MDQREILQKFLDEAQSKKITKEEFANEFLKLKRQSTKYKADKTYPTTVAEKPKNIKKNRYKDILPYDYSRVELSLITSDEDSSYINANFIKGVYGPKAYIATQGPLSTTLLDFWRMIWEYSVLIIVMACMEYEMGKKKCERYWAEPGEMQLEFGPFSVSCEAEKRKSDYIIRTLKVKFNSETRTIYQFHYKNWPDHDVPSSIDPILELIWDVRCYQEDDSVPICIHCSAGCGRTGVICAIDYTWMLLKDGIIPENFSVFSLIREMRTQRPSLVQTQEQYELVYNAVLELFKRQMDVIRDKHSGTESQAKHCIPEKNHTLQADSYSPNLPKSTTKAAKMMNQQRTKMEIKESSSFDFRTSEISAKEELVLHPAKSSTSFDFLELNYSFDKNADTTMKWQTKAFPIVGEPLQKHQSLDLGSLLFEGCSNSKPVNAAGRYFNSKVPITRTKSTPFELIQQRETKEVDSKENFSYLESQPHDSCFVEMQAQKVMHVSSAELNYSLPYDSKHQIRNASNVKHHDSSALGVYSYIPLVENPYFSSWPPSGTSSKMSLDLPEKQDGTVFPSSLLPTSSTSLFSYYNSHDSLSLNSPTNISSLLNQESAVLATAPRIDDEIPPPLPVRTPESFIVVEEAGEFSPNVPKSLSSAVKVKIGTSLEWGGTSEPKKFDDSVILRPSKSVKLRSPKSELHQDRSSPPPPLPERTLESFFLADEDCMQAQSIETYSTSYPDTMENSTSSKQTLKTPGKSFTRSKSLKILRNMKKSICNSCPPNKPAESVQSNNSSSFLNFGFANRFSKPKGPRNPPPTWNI

What follows are compounds tested against Tyrosine-protein phosphatase non-receptor type 22 (Homo sapiens) (UniProt Q9Y2R2) (assay: inhibitors of LYP phosphatase, biochemical, fluorescence intensity, uHTS (AID 1779;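 note: plate controls were vehicle with enzyme for no effect and no enzyme for full effect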)). Conditions: recombinant LYP phosphatase, at 11.5 µM, hits give high values.

| SMILES | inhibition |
| --- | --- |
| CN(C)C1(CNC(=O)c2cccc(C#N)c2)CCCCC1 | inactive: -6.5% |
| c1ccc(CN2CCC(Nc3ccccc3)CC2)cc1 | inactive: -7.8% |
| CCCN1CCC(Nc2cc(OC)cc(OC)c2)CC1 | inactive: -5% |
| N#Cc1ccc(C(=O)NCC2(N3CCCCC3)CCCCC2)cc1 | inactive: -35.3% |
| CC(C)(C)OC(=O)N1CCC(N(C(=O)c2ccccc2)c2ccc(Cl)cc2)CC1 | inactive: -6.2% |
| CCOC(=O)N1CCC(Nc2ccc(C)cc2)CC1 | inactive: -7.9% |
| N/C(=N\O)c1c(N)no[n+]1[O-] | inactive: -0.8% |
| O=C(OC1CN2CCC1CC2)C1c2ccccc2C=Cc2ccccc21 (centres undefined) | inactive: -1.7% |
| COc1ccc(C(=O)NCC2(N3CCOCC3)CCCCC2)cc1OC | inactive: -4.1% |
| COc1cccc(C(=O)N(c2cc(C)cc(C)c2)C2CCN(C(=O)OC(C)(C)C)CC2)c1 | inactive: 12% |
| COc1cc(OC)cc(C(=O)NCC2(N3CCOCC3)CCCCC2)c1 | inactive: -5.5% |
| CCC(CO)(C(=O)OC1CN2CCC1CC2)c1ccccc1 (centres undefined) | inactive: -9.2% |
| CN1CCC(Nc2ccc(Cl)cc2)CC1 | inactive: -10.4% |
| CCCOc1ccc(C)cc1CN(CCCl)CCCl | inactive: -9% |
| CCOc1ncccc1C(=O)NCC1(N2CCOCC2)CCCCC1 | inactive: -3.3% |
| CN1CCC(Nc2ccc(F)c(Cl)c2)CC1 | inactive: -0.8% |
| CC(C)(C)OC(=O)N1CCC(Nc2ccccc2)CC1 | inactive: -1.4% |
| O=C(O)C1(Nc2ccccc2)CCN(Cc2ccccc2)CC1 | inactive: -10.9% |
| CCCOc1ccc(C(=O)NCC2(N(C)C)CCCCC2)cc1 | inactive: -4.4% |
| CCN1CCC(Nc2cccc(F)c2)CC1 | inactive: -6.2% |
| CN(C)c1ccc(C(=O)NCC2(N3CCCCC3)CCCCC2)cc1 | inactive: 1.3% |
| COc1cc(OC)cc(C(=O)NCC2(N3CCCCC3)CCCCC2)c1 | inactive: -4.3% |
| Fc1ccccc1NC1CCN(Cc2ccccc2)CC1 | inactive: -6.4% |
| CCOC(=O)N1CCC(Nc2cccc(C)c2)CC1 | inactive: -6.9% |
| COc1cc(C(=O)NCC2(N(C)C)CCCCC2)ccc1OC(F)F | inactive: -6.4% |
| Cc1ccc(OCC(C)C)c(CN(CCCl)CCCl)c1 | inactive: -10.9% |
| CCOc1ccc(C)cc1CN(CCCl)CCCl | inactive: -5.7% |

| SMILES | inhibition |
| --- | --- |
| O=C(NCC1(N2CCCCC2)CCCCC1)c1ccc(F)cc1 | inactive: -9.9% |
| CCOC(=O)N1CCC(Nc2ccc(F)cc2)CC1 | inactive: -9.7% |
| COc1ccc(NC2CCN(CCc3ccccc3)CC2)c(OC)c1 | inactive: -5.6% |
| Cc1cc(C)cc(N(C(=O)c2ccccc2)C2CCN(C(=O)OC(C)(C)C)CC2)c1 | inactive: -5.8% |
| O=C(NCC1(N2CCOCC2)CCCCC1)c1cc2ccccc2o1 | inactive: -10.4% |
| N#CC1(Nc2ccccc2)CCN(Cc2ccccc2)CC1 | inactive: -2% |
| O=C(OC1CN2CCC1CC2)C1c2ccccc2Oc2ccccc21 (centres undefined) | inactive: -5.3% |
| CCOC(=O)N1CCC(Nc2ccc(OC)cc2)CC1 | inactive: -4.2% |
| COc1ccc(C(=O)NCC2(N3CCCCC3)CCCCC2)cc1 | inactive: -7.8% |
| COc1ccc(C(=O)NCC2(N3CCCCC3)CCCCC2)c(OC)c1OC | inactive: 1.7% |
| CC(C)(C)OC(=O)N1CCC(N(C(=O)c2ccccc2)c2ccc(F)cc2)CC1 | inactive: -1.9% |
| O=C(NCC1(N2CCCCC2)CCCCC1)c1ccc(=O)[nH]c1 | inactive: -13.4% |
| CSc1ccccc1C(=O)NCC1(N2CCCCC2)CCCCC1 | inactive: -11.3% |
| CCCOc1ccc(C(=O)NCC2(N(C)C)CCCCC2)cc1OC | inactive: -8.4% |
| CC(C)c1ccc(NC2CCN(C(=O)OC(C)(C)C)CC2)cc1 | inactive: 8.1% |
| COc1ccc(CN(CCCl)CCCl)cc1Cl | inactive: -8.6% |
| CN(C)c1cccc(C(=O)NCC2(N3CCCCC3)CCCCC2)c1 | inactive: -16% |
| COc1cc(OC)c(C(=O)NCC2(N(C)C)CCCCC2)cc1OC | inactive: -9.1% |
| O=C(NCC1(N2CCCCC2)CCCCC1)c1cccc(C(F)(F)F)c1 | inactive: -12.2% |
| O=C(NCC1(N2CCOCC2)CCCCC1)c1cc(=O)[nH]c2ccccc12 | inactive: -5.4% |
| COc1cc(C(=O)NCC2(N3CCCCC3)CCCCC2)ccc1OC(F)F | inactive: -7.5% |
| COc1ccc(NC2CCN(C(=O)OC(C)(C)C)CC2)cc1 | inactive: 0.4% |
| CN1CCN(CCOC(=O)C(O)(c2ccccc2)c2ccccc2)CC1 | inactive: -6.8% |
| O=C(NCC1(N2CCCCC2)CCCCC1)c1ccc(OC(F)F)cc1 | inactive: -5.3% |
| CCN1CCC(Nc2ccc(Cl)cc2)CC1 | inactive: -6.5% |
| N#CC1(Nc2ccccc2)CCN(CCc2ccccc2)CC1 | inactive: -4.1% |
| O=C(NCC1(N2CCCCC2)CCCCC1)c1cccc([N+](=O)[O-])c1 | inactive: -4.5% |
